Measured values reported in BindingDB's records for doi:10.1124/jpet.103.064907 (Abbott Laboratories, 2004).

Target: T1, P2X purinoceptor 3 (Homo sapiens, UniProt P56373)
T1 sequence (P56373 whole entry): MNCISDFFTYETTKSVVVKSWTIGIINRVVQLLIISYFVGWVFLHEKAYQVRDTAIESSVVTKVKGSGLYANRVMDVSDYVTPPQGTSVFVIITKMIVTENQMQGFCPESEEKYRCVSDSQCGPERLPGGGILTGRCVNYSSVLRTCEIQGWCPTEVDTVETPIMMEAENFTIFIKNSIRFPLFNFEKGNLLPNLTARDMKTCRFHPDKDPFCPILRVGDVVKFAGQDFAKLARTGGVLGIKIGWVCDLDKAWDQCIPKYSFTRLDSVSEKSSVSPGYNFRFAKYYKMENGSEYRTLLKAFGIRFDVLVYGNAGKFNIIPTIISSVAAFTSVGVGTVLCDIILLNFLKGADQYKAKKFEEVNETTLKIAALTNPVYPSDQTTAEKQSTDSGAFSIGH

Ki: 3.47 µM
SMILES: Cc1nc(/N=N/c2ccc(S(=O)(=O)O)cc2S(=O)(=O)O)c(COP(=O)(O)O)c(C=O)c1O
